Data as given in US20230112123A1.

Tests used:
[1] = target: CD47 (UniProt Q08722); test: FACS binding; U266 cells; conditions: Fc fusion
[2] = target: CD47 (UniProt Q08722); test: FACS binding; Raji cells; conditions: Fc fusion

“IMM01 (SIRPalphaD1 mutant-Fc fusion protein)” gave an EC50 [1] of 17.5 nM and an EC50 [2] of 5.22 nM.
